# Key:
# The chains behind the UniProt entries cited, without tags or fusion partners. Residues count along the entry.
# UniProt Q00960, 27-1482 limits assumed: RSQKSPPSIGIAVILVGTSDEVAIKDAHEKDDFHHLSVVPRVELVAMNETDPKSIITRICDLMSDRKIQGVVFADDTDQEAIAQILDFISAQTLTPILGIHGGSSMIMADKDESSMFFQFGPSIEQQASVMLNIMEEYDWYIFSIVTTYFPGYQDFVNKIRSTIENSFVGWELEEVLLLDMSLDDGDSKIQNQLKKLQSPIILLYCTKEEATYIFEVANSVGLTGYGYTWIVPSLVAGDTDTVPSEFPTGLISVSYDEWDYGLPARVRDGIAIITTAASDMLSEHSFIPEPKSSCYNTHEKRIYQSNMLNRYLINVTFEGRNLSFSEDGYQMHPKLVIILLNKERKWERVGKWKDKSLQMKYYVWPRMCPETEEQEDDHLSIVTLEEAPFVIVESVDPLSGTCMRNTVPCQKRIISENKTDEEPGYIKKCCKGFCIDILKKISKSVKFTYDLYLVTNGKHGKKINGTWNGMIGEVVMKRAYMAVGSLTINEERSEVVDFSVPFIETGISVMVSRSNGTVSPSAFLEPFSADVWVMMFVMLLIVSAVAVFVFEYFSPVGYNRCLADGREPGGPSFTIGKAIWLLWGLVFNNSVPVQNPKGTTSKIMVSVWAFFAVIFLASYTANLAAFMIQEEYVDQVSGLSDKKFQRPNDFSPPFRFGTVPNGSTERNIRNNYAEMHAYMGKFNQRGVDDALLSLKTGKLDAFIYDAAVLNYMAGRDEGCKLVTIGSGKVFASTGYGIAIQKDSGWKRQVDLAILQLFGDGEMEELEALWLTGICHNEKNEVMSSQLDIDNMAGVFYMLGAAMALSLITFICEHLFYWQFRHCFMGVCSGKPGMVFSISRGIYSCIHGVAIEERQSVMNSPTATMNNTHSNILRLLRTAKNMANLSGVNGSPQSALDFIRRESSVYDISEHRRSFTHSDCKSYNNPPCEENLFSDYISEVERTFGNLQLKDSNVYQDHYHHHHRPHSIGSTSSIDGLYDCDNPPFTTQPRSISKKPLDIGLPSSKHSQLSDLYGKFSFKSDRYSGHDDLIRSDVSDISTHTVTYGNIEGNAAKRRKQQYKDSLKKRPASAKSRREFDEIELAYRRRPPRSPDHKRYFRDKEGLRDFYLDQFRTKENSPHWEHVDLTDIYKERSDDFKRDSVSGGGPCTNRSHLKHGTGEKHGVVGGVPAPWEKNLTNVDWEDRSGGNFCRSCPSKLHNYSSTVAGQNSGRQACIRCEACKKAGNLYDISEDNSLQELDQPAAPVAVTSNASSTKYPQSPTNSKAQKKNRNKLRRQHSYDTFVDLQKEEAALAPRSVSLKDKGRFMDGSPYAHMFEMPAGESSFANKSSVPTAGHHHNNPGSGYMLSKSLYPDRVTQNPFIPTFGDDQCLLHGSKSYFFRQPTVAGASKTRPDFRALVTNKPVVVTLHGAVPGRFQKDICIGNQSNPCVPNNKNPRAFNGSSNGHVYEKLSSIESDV
# [1] = biological target: strychnine-insensitive Gly site on the NMDA receptor complex (Rattus norvegicus, UniProt P35439); assay: biochemical; format: binding
# [2] = biological target: polyamine-sensitive site of the NMDA receptor (Rattus norvegicus, UniProt P35439+Q00960); assay: biochemical; format: binding
# NMDA receptor [3] = biological target: T1, NMDA receptor (Rattus norvegicus, UniProt P35439+Q00960); conditions: forebrain membranes, 30 nM
# NMDA receptor [4] = biological target: T1, NMDA receptor; assay: biochemical; format: binding; parameters: other: test compound in the absence of spermine; concentration at 50% of maximum stimulation; % Sti; spermine = 100; other: with and without spermine; absence of spermine; % STI; absence; conditions: read-out: % Sti
# NMDA receptor [5] = format: binding, rat; conditions: for IC50: read-out: Spermine IC
# NMDA receptor [6] = biological target: T1, NMDA receptor; format: binding; parameters: rows headed: EC (μM); other: test compound in the absence of spermine; concentration at 50% of maximum stimulation; % Sti; spermine = 100; other: with and without spermine; EC50; absence of spermine; % STI; absence of
Structure (SMILES),IC50 [1] [nM],IC50 [2] [nM],reduction of Gly-stimulated [3H]MK-801 binding (NMDA receptor [3]),Emax (NMDA receptor [4]) [%],% Inh (NMDA receptor [5]) [%],IC50 (NMDA receptor [5]) [nM],type of antagonism of NMDA receptor stimulation (NMDA receptor [6])
"CC[C@H](C)[C@H](NC(=O)[C@H](CC(C)C)NC(=O)[C@H](CC(C(=O)O)C(=O)O)NC(=O)[C@H](CCC(N)=O)NC(=O)[C@H](CC(N)=O)NC(=O)[C@H](C)NC(=O)[C@H](CCC(N)=O)NC(=O)[C@H](CC(C)C)NC(=O)[C@H](CC(C(=O)O)C(=O)O)NC(=O)[C@H](CC(C(=O)O)C(=O)O)NC(=O)[C@H](CCC(=O)O)NC(=O)CN)C(=O)N[C@@H](CCCNC(=N)N)C(=O)N[C@@H](CC(C(=O)O)C(=O)O)C(=O)N[C@@H](CCCCN)C(=O)N[C@@H](CO)C(=O)N[C@@H](CC(N)=O)C(N)=O [Ala7-Con-G, GEggLQANQgLIRgKSN]",> 2500,> 2500,about 20%,0,,,
"CC[C@H](C)[C@H](NC(=O)[C@H](CC(C)C)NC(=O)[C@H](CC(C(=O)O)C(=O)O)NC(=O)[C@H](CCC(N)=O)NC(=O)[C@H](CC(N)=O)NC(=O)[C@H](CC(C(=O)O)C(=O)O)NC(=O)[C@H](CCC(N)=O)NC(=O)[C@H](CC(C)C)NC(=O)[C@H](CC(C(=O)O)C(=O)O)NC(=O)[C@H](CC(C(=O)O)C(=O)O)NC(=O)[C@H](CCC(=O)O)NC(=O)CN)C(=O)N[C@@H](CCCNC(=N)N)C(=O)N[C@@H](CO)C(=O)N[C@@H](CCCCN)C(=O)N[C@@H](CO)C(=O)N[C@@H](CC(N)=O)C(N)=O [Serl4-Con-G, GEggLQgNQgLIRSKSN]",,,,0,100,160 ± 40,only antagonize the PA portion
"CC[C@H](C)[C@H](NC(=O)[C@H](CC(C)C)NC(=O)[C@H](CC(C(=O)O)C(=O)O)NC(=O)[C@H](CCC(N)=O)NC(=O)[C@H](CC(N)=O)NC(=O)[C@H](CC(C(=O)O)C(=O)O)NC(=O)[C@H](CCC(N)=O)NC(=O)[C@H](CC(C)C)NC(=O)[C@H](CC(C(=O)O)C(=O)O)NC(=O)[C@H](CC(C(=O)O)C(=O)O)NC(=O)[C@H](CCC(=O)O)NC(=O)CNC(=O)[C@@H](N)CC(N)=O)C(=O)N[C@@H](CCCNC(=N)N)C(=O)N[C@@H](CC(C(=O)O)C(=O)O)C(=O)N[C@@H](CCCCN)C(=O)N[C@@H](CO)C(=O)N[C@@H](CC(N)=O)C(N)=O [Asn^o-Con-G, N-GEggLQgNQgLIRgKSN]",,,,0,83,8700,
